Test results from article PMC9784403 (Pharmaceuticals, 2022).

Biological target: T1, σ2R/TMEM97 (Rattus norvegicus, UniProt Q5U3Y7)
T1 sequence (Q5U3Y7 1-176): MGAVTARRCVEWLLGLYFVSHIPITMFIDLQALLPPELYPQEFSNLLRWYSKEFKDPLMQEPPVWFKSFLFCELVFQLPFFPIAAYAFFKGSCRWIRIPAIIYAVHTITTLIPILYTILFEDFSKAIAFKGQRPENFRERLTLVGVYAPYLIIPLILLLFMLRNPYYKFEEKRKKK
Assay: Competitive receptor binding assay with [3H]DTG (σ1R masked with (+)-pentazocine)
Conditions: full competition assay using both radioligands, [3H]DTG and [125I]RHM-4

Cc1ccc2c(c1)C1CN(C)CCC1N2C(=O)CSc1nnnn1-c1ccc(Cl)cc1 (stereo not shown) [AG-205, reference compound]
σ2R affinity: ~1 µM
